The assay has as its target human GLP-1 receptor (GLP-1R) (human) (UniProt P43220). The assay is described as follows: cell-based or functional assay. The following applies: scale: times higher concentration than the active forms of GLP-1.

Protein sequences, listed by entry. Tags and fused reporters are not part of them. Residues count along the entry.
UniProt P43220, 24-463 limits assumed: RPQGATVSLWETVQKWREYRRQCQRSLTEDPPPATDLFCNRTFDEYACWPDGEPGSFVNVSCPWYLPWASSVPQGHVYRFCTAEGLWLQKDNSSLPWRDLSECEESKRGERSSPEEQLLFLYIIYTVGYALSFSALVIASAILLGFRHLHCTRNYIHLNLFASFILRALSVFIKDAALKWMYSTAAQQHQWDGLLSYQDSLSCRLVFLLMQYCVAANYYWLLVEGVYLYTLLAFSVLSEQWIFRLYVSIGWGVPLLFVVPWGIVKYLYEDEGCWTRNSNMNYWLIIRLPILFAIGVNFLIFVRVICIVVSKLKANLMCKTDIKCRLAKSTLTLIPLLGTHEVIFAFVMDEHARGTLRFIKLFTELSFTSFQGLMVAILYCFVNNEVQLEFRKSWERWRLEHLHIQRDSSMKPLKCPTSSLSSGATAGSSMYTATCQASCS

Here are results for one substance from patent US20130280734A1.

With “oxyntomodulin (from UniProt P01275 53-89) (peptide)”, the reactivity of the kit (aequorin luminescence), concentration relative to the active forms of GLP-1 came to 10000.
